Measurements from patent publication US20220079950A1, “THERAPEUTIC COMBINATIONS AS ANTIDOTES FOR ORGANOPHOSPHATE EXPOSURE” (published 2022).

Key:
[1] = Screen of FDA approved drugs for change of RS194B levels (FIG. 13, 14); details: in vivo
P-glycoprotein = assay: RS194B tissue levels after administration of the P-glycoprotein inhibitor tariquidar (FIG. 11A-B); details: mice
[2] = Protective Indices upon intramuscular and oral administration (FIG. 1); details: i.m. versus p.o. administration

In the case of CN(C)C(=N)N=C(N)N, the “change in RS 194B levels in tissues and urine with co-administered FDA approved drug” value (shortened to “change in RS 194B levels”) [1] is reported as “little change”.
With O=C(O)c1cn(C2CC2)c2cc(N3CCNCC3)c(F)cc2c1=O the “change in RS 194B levels” value [1] was “increases”.
For COc1cc2c(cc1OC)CN(CCc1ccc(NC(=O)c3cc(OC)c(OC)cc3NC(=O)c3cnc4ccccc4c3)cc1)CC2, the “bile concentration of RS194B with tariquidar” value (P-glycoprotein) was “reductions”, the “kidney concentration of RS194B with tariquidar” value (P-glycoprotein) was “enhanced” and the “liver concentration of RS194B with tariquidar” value (P-glycoprotein) was “enhanced”. For the same molecule, the “urine concentration of RS194B with tariquidar” value (P-glycoprotein) was “reductions” and the “plasma level of RS194B with tariquidar” value (P-glycoprotein; tariquidar IP 10 min prior, collected 15 or 10 min after RS194B, n=3) was “enhancement”.
For C[C@H]1COc2c(N3CCN(C)CC3)c(F)cc3c(=O)c(C(=O)O)cn1c23, the “change in RS 194B levels” value [1] was “increases”.
In the case of CCl.ON=Cc1ccccn1, the “oral bioavailability shown by Protective Indices” value [2] is reported as “lack thereof”.
